Source: ChEMBL document CHEMBL1212803, “Resistance-associated mutations to etravirine (TMC-125) in antiretroviral-naïve patients infected with non-B HIV-1 subtypes” (2010)

Tested on: Human immunodeficiency virus 1
Test: Antiviral activity against HIV-1 subtype CRF02_AG containing reverse transcriptase E138A/K32R, V35E, T39S, S48T, V60I, D121Y, K122E, I135T, S162A, K173A, Q174K, D177E, V179I, T200E, Q207D, R211K mutant relative to control
Type: functional

O=C1Nc2ccc(Cl)cc2[C@@](C#CC2CC2)(C(F)(F)F)O1 [EFAVIRENZ]
Ratio IC50: 2.9
